Measured values as given in patent publication US20120021993A1 (AJOU UNIVERSITY INDUSTRY ACADEMIC COOPERATION FOUNDATION, published 2012).

By UniProt entry, the sequences of proteins in these tests, tags left out. Chains listed by the source or under a name are the forms on record and can include a tag or linker.
UniProt P01375, other isoform, or with tags, fused parts or gaps limits assumed: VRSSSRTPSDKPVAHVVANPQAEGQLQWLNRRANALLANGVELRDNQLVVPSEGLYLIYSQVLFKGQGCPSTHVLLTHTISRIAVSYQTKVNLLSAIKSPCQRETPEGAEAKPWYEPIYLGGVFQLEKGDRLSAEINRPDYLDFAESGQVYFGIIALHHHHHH

Target: TNFα, extracellular domain (amino acid residue 1-157), 6xHis tag (human, UniProt P01375 57-233)
Experiment: cell-based or functional assay

B1: infliximab (antibody, V domains shown)
VH: EVKLEESGGGLVQPGGSMKLSCVASGFIFSNHWMNWVRQSPEKGLEWVAEIRSKSINSATHYAESVKGRFTISRDDSKSAVYLQMTDLRTEDTGVYYCSRNYYGSTYDYWGQGTTLTVSS
VL: DILLTQSPAILSVSPGERVSFSCRASQFVGSSIHWYQQRTNGSPRLLIKYASESMSGIPSRFSGSGSGTDFTLSINTVESEDIADYYCQQSHSWPFTFGSGTNLEVKR
With B1 the “IC50 (50% inhibiting concentration) of TNFα-mediated cell death, WEHI 164, MTT assay” value was ~2 nM.
